Source: publication PMC4324447 (Journal of Medicinal Chemistry, 2014)

By UniProt entry, the sequences of proteins in these tests, tags left out.
UniProt P32245, whole entry L106P: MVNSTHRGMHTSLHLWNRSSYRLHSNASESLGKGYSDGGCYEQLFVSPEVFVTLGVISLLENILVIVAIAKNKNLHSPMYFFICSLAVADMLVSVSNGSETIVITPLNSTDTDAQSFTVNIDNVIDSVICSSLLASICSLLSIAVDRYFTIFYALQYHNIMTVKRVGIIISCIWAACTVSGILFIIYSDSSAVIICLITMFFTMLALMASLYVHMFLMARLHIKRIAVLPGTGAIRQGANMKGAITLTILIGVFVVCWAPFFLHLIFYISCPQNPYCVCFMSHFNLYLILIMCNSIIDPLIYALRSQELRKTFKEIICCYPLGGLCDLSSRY
UniProt P32245, whole entry: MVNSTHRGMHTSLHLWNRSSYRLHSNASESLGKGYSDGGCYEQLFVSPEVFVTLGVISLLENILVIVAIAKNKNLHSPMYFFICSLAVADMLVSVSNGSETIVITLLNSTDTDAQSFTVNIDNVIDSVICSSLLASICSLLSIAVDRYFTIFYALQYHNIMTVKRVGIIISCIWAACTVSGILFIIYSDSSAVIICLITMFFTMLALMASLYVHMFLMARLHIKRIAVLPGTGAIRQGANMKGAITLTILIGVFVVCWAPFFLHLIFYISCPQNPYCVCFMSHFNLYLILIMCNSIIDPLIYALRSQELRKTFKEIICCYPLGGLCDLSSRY

Legend:
L106P hMC4R = L106P hMC4R (Homo sapiens, UniProt P32245, L106P); test: cAMP based CRE/β-galactosidase reporter gene functional bioassay, L106P hMC4R
WT hMC4R = WT hMC4R (Homo sapiens, UniProt P32245)

In the case of `CC(=O)N[C@@H](Cc1cnc[nH]1)C(=O)N[C@H](Cc1ccccc1)C(=O)N[C@@H](CCCN=C(N)N)C(=O)N[C@@H](Cc1c[nH]c2ccccc12)C(N)=O` [compound 1, Ac-His-DPhe-Arg-Trp-NH2], the EC50 (L106P hMC4R) is reported as 215 ± 83 nM and the EC50 (WT hMC4R) is reported as 2.6 ± 1.6 nM.
